# Assay results reported in PubChem BioAssay AID588453 (National Center for Advancing Translational Sciences (NCATS), 2011).
# Chains of the proteins cited; added tags and fusions are not shown.
# UniProt O89049, whole entry, looked up: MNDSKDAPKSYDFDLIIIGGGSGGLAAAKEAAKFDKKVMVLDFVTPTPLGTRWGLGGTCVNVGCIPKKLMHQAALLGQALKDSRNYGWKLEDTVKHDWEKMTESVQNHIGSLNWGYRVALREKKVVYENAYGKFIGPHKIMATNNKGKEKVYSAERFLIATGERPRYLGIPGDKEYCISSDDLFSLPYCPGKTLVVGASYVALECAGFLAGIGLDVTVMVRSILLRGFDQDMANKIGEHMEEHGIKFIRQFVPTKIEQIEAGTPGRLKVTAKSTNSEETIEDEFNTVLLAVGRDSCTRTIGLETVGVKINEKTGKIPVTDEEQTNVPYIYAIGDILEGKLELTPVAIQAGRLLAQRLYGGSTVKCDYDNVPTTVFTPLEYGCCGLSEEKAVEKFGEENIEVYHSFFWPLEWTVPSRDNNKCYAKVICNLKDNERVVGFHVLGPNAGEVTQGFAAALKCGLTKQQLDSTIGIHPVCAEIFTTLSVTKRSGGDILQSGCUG
# This is a selection; strong and weak results do not stand in their true shares. Results filed as inconclusive are left out. Active and inactive are the calls of the source. Calls come from the whole dose curve; as a rule, active = well fitted inhibition curve with a large enough effect; inconclusive = small, poorly fitted or top-dose-only effect; inactive = no such curve, though single readings can be large or run the other way.
# Target: Thioredoxin reductase 1, cytoplasmic (Rattus norvegicus) (UniProt O89049)
# Test: qHTS Assay for Inhibitors of Mammalian Selenoprotein Thioredoxin Reductase 1 (TrxR1): qHTS; note: nearly all actives have a fitted effect of over 65% in size
# Details: recombinant rTrxR1, NADPH fluorescence consumption, selenite substrate; series mostly up to 114 µM; activity change, negative = inhibition: at the top concentration
# % is set by controls: 0 for no effect and ±100 for the full control effect; potency is the fitted concentration of half-maximal effect.
SMILES,"activity change, negative = inhibition",Potency
CCCOP(=S)(Nc1nc(N)cc(=O)[nH]1)OCCC,inactive: 45.7%,–
COc1cc(C2NCCC3(OCCO3)C2(C)C)cc(OC)c1OC (stereo not drawn),inactive: -7.64%,–
CCOP(=O)(Nc1cccc2ccccc12)OCC,inactive: 26.4%,–
O=[As](O)(O)c1cccnc1,inactive: 7.72%,–
COc1cc(C(=O)NCC2(N3CCOCC3)CCCCC2)cc(Cl)c1OC(C)C,inactive: 24.4% [at 57.1 µM],–
CS(=O)(=O)c1ccc(Cl)c(NC(=O)COC(=O)C(O)(c2ccccc2)c2ccccc2)c1,inactive: -17%,–
O=C(OC1CN2CCC1CC2)c1ccc(Cl)cc1 (stereo not drawn),inactive: 3.95%,–
CN(C(=O)Cc1ccc(Cl)c(Cl)c1)[C@@H]1CC[C@]2(CCCO2)C[C@H]1N1CCCC1,inactive,–
Cc1cccc(OCC(=O)OC2CN3CCC2CC3)c1 (stereo not drawn),inactive: -0.773% [at 57.1 µM],–
O=[As](O)(c1cccc(O)c1)c1cccc(O)c1,inactive: 3.82%,–
NC(=O)Nc1ccc([As](=O)(O)O)cc1,inactive: 8.69%,–
O=[N+]([O-])c1ccc2c(c1)nnn2O,inactive: -4.68%,–
CN(C(=O)Cc1ccc(Cl)c(Cl)c1)[C@H]1CC[C@@]2(CCCO2)C[C@@H]1N1CCCC1,inactive: 1.58%,–
N#CCCN(C(=O)COC(=O)C(O)(c1ccccc1)c1ccccc1)c1ccc(F)cc1,inactive: 8.35%,–
CCOP1(=S)c2c(C)nn(CCC#N)c2N=C(c2ccc(F)cc2)N1C (stereo not drawn),inactive: 7.06%,–
CN(C(=O)Cc1ccccc1)[C@@H]1CC[C@]2(CCCO2)C[C@H]1N1CCCC1,inactive,–
CS(=O)(=O)c1cc([N+](=O)[O-])c2no[n+]([O-])c2c1,–,active: 8.91 µM
CCOP1(=S)c2c(C)nn(CCC#N)c2N=C(c2ccccc2F)N1C (stereo not drawn),inactive: 5.67%,–
O=P(Nc1nccs1)(Oc1ccccc1)Oc1ccccc1,inactive: 16.9%,–
O=P(Nc1nccs1)(c1ccccc1)c1nc2ccccc2s1 (stereo not drawn),–,active: 3.55 µM
Nc1ccccc1[As](=O)(O)c1ccccc1,inactive: -6.51%,–
O=C(O)COc1ccc([As](=O)(O)O)cc1[N+](=O)[O-],inactive: 2.81%,–
O=P1(Nc2ncccn2)COc2ccccc2OC1,inactive: 13.6% [at 57.1 µM],–
Cc1ccc(OCC(=O)OC2CN3CCC2CC3)cc1 (stereo not drawn),inactive: 14%,–

SMILES,"activity change, negative = inhibition",Potency
O=[As](O)(c1cccs1)c1cccs1,inactive: -2.38% [at 2.29 µM],–
O=P1(Nc2ccc(Br)cn2)COc2ccccc2OC1,inactive: 15.4%,–
NS(=O)(=O)c1cccc(NC(=O)COC(=O)C(O)(c2ccccc2)c2ccccc2)c1,inactive: 21.6%,–
Nc1cccc([As](=O)(O)c2ccccc2)c1,inactive: 28.6%,–
Cc1nn(-c2ccccc2)c2c1P(=O)(N1CCOCC1)N(C)C(c1ccccc1)=N2 (stereo not drawn),inactive: -12.4% [at 57.1 µM],–
CC1CCC(C(C)C)C(OP(=O)(Nc2ccccn2)c2ccccc2)C1 (stereo not drawn),inactive: -8.95% [at 57.1 µM],–
Cc1ccc(C(=O)OC2CN3CCC2CC3)cc1 (stereo not drawn),inactive: 23.9%,–
COc1cc([N+](=O)[O-])ccc1[N+](=O)[O-],inactive: -21.4%,–
O=C(/C=C/c1ccccc1)OC1CN2CCC1CC2 (stereo not drawn),inactive: 9.27% [at 57.1 µM],–
CCCC1OP(=O)(Nc2ccccc2)OCC1CC (stereo not drawn),inactive: 14.9%,–
CN(C)C1(CNC(=O)c2ccc(S(C)(=O)=O)cc2)CCCCC1,inactive: 12%,–
COc1ccccc1CNC(=O)COC(=O)C(O)(c1ccccc1)c1ccccc1,inactive: 5.65%,–
CC1(CBr)Cn2c(nc3ccccc3c2=O)S1 (stereo not drawn),inactive: 12.4%,–
CC(C)/C=N\N=C(\N)N[N+](=O)[O-],inactive: 15.6% [at 57.1 µM],–
CCOP(=O)(Nc1ccc(C)cn1)OCC,inactive: 41.1%,–
O=P1(Nc2ccccn2)COc2ccccc2OC1,inactive: -5.46%,–
CCC1=CC2Cc3nc4ccc(Cl)cc4c(N)c3C(C1)C2 (stereo not drawn),inactive: 14.6%,–
CCOP(=O)(NC(=NC(C)c1ccccc1)NC(C)c1ccccc1)OCC (stereo not drawn),inactive: 18%,–
Clc1n[nH]nc1-c1nn[nH][15n]1,inactive: 1.28%,–
CCOC(=O)c1ccc(NC(=O)C(C)(CCl)SC)cc1 (stereo not drawn),inactive: 18.8% [at 57.1 µM],–
O=C(OC1CN2CCC1CC2)c1cccc([N+](=O)[O-])c1 (stereo not drawn),inactive: 9.23% [at 57.1 µM],–
CCOP(=O)(Nc1cccc2cccnc12)OCC,inactive: 17.4% [at 0.457 µM],–
CCC(C)N(CC(C)C)C(=S)SC(NC(C)=O)C(Cl)(Cl)Cl (stereo not drawn),–,active: 50.1 µM
COP1(=S)c2c(C)nn(CCC#N)c2N=C(c2ccc(F)cc2)N1C (stereo not drawn),inactive: 20.3%,–

SMILES,"activity change, negative = inhibition",Potency
O=C(COc1ccccc1)OC1CN2CCC1CC2 (stereo not drawn),inactive: 4.72% [at 57.1 µM],–
O=C(Nc1ccncc1[N+](=O)[O-])c1ccc([N+](=O)[O-])cc1[N+](=O)[O-],inactive: 18.8%,–
CCOC(=O)Nc1cccc([As](=O)(O)O)c1,inactive: 0.617%,–
O=[N+]([O-])c1ccc(Nc2ccc(Oc3ccc([N+](=O)[O-])cc3[N+](=O)[O-])cc2)c([N+](=O)[O-])c1,inactive: 4.44% [at 2.29 µM],–
O=P(Nc1ccccn1)(c1cccc2ccccc12)c1cccc2ccccc12,inactive: 4.6% [at 57.1 µM],–
Cc1cc(SC(NC=O)C(Cl)(Cl)Cl)ncn1 (stereo not drawn),–,active: 14.1 µM
CC1CCNP(=O)(N(CCCl)CCCl)O1 (stereo not drawn),inactive: 17.8% [at 57.1 µM],–
CCCCOc1ccc(C(=O)NCC2(N3CCCCC3)CCCCC2)cc1OC,inactive: 17.6% [at 57.1 µM],–
COC(=O)C1(C)COP(=O)(N2CCCCCC2)OC1 (stereo not drawn),inactive: 1.42% [at 11.4 µM],–
CC(C)c1ccc(OP(=O)(Nc2ccccn2)Oc2ccccc2F)cc1 (stereo not drawn),inactive: 4.16%,–
ClCCSc1nnc(-c2cccnc2)o1,inactive: 6.79% [at 57.1 µM],–
O=Cc1ccc(NCCCl)cc1,inactive: 0.0415%,–
CC(C)NC(=O)NP(=O)(Oc1ccccc1)Oc1ccccc1,inactive: 0.178% [at 57.1 µM],–
CCN(CC)C(=S)SC(NC=O)C(Cl)(Cl)Cl (stereo not drawn),inactive: -7.54%,–
O=C(OC1CN2CCC1CC2)c1cccc2[nH]cnc12 (stereo not drawn),inactive: 20.1% [at 57.1 µM],–
O=[N+]([O-])c1cc([N+](=O)[O-])c(-c2ccn[nH]2)s1,–,active: 3.16 µM
C[As](=O)(O)c1cccc(C(=O)O)c1,inactive: 3.88% [at 57.1 µM],–
O=[As](O)(c1ccc(O)cc1)c1ccccc1O,inactive: 6.28%,–
COc1cc(C(=O)NCC2(N3CCOCC3)CCCCC2)ccc1OCC(C)C,inactive: -14.3%,–
Cc1ccc2nc3c(c(C)c2c1)CC(C(Cl)Cl)S3 (stereo not drawn),inactive: 15.3% [at 57.1 µM],–
Cc1ccc(OP(=O)(Nc2ccc([N+](=O)[O-])cn2)Oc2ccc(C)cc2)cc1,inactive: 12.4%,–
COc1ccc(N/C(=N/P(=O)(N2CCOCC2)N2CCOCC2)N2CCOCC2)cc1,inactive: 19.4% [at 57.1 µM],–
O=C(OC1CN2CCC1CC2)C12CC3CC(CC(C3)C1)C2 (stereo not drawn),inactive: 12.4%,–
Cc1cc(=O)[nH]c(N[N+](=O)[O-])n1,inactive: 0.126%,–

SMILES,"activity change, negative = inhibition",Potency
Cc1c2c(nc3ccccc13)SC(C(Cl)Cl)C2 (stereo not drawn),inactive: 7.46%,–
COc1ccc2nc(NP(=O)(c3ccccc3)c3ccccc3)sc2c1,inactive: 29%,–
COc1cc(I)ccc1[As](=O)(O)O,–,active: 44.7 µM
O=P1(N(CCCl)CCCl)OCCCN1CCCl (stereo not drawn),inactive: -6.23%,–
O=P1(N(CCCl)CCCl)Nc2ccccc2N1,inactive: 21% [at 57.1 µM],–
Nc1cc(N)c2nonc2c1[N+](=O)[O-],inactive: 11.6% [at 57.1 µM],–
CC(C)CC(=O)NC(Sc1ccc(Cl)cc1)C(Cl)(Cl)Cl (stereo not drawn),inactive: 19.7%,–
Oc1ccccc1CNc1ccccn1,inactive: 16%,–
NC(=O)c1cc([N+](=O)[O-])cc([N+](=O)[O-])c1N,inactive: 11.8%,–
O=[N+]([O-])c1cc2c(cc1[N+](=O)[O-])OCO2,inactive: -18.4%,–
Cc1ccc(N/C(=N/P(=O)(N2CCOCC2)N2CCOCC2)N2CCOCC2)cc1,inactive: 32.5% [at 57.1 µM],–
COc1ccccc1OP(=O)(Nc1ccc(C)cn1)Oc1ccccc1OC,inactive: -1.25% [at 57.1 µM],–
Cc1ccc(OP(=O)(Nc2nccs2)Oc2ccc(C)cc2)cc1,inactive: -8.03% [at 57.1 µM],–
CN1CCCC(OC(=O)C(c2ccccc2)c2ccccc2)C1 (stereo not drawn),inactive: 7.44%,–
Nc1c(O)cc([N+](=O)[O-])cc1[N+](=O)[O-],inactive: -8.75%,–
CCN(N=Nc1nonc1N)c1nonc1N,inactive: -6.53% [at 57.1 µM],–
Nc1cccc2ccc([As](=O)(O)O)cc12,inactive: 12% [at 2.29 µM],–
CC(=O)Nc1ccc([As](=O)(O)O)cc1,inactive: -21.1%,–
O=C(O)c1ccccc1[As](=O)(O)O,–,active: 7.08 µM
CCCC1OP(N)(=O)OCC1CC (stereo not drawn),inactive: 2.63% [at 2.29 µM],–
O=P(Nc1nc2ccc(Cl)cc2s1)(c1ccccc1)c1ccccc1,inactive: 15% [at 57.1 µM],–
Cc1cc(SC(NC(=O)c2ccc(F)cc2)C(Cl)(Cl)Cl)ncn1 (stereo not drawn),inactive: -21.9%,–
CCOP(=O)(Nc1ccccc1)OCC,inactive: 11.5%,–
Cc1ccc(NP(=O)(Oc2ccccc2F)Oc2ccccc2F)nc1,inactive: 20.3% [at 57.1 µM],–

SMILES,"activity change, negative = inhibition",Potency
CC(C)(C)C(=O)NC(Sc1ccncn1)C(Cl)(Cl)Cl (stereo not drawn),–,active: 4.47 µM
O=[N+]([O-])c1ncn(CCn2ncnc2[N+](=O)[O-])n1,inactive: -0.632%,–
COC(=O)C1(C)COP(=O)(Nc2ccccc2)OC1 (stereo not drawn),inactive: 11.7% [at 11.4 µM],–
O=C(O)CNc1ccc([As](=O)(O)O)cc1,inactive: 16.9%,–
Cc1cc(C=O)ccc1N(CCCl)CCCl,inactive: -1.51%,–
O=P1(N(CCCl)CCCl)OCCCS1 (stereo not drawn),inactive: -1.79% [at 2.29 µM],–
O=P(/N=c1/nc(-c2ccccc2)n(-c2ccccc2)s1)(Nc1ccccc1)Nc1ccccc1,inactive: 0.0051%,–
O=C(Nc1cc([As](=O)(O)O)ccc1O)c1ccccc1,inactive: -0.512% [at 57.1 µM],–
Nc1ccc([As](=O)(O)c2ccc(N)cc2)cc1,inactive: 18%,–
CCN(/C(=N/P(=O)(N1CCOCC1)N1CCOCC1)N1CCOCC1)c1ccc(OC)cc1,inactive: 1.62% [at 57.1 µM],–
CC(C)=N/N=C(\N)N[N+](=O)[O-],inactive: 0.33% [at 57.1 µM],–
CN(C)C(=O)OCCc1n(C)cc[n+]1C,inactive: 17.4%,–
CC1CCN(C(=O)Oc2c(Cl)cc(Cl)c3cccnc23)CC1,inactive: 6.63%,–
COc1ccc(C2=NCC(CBr)S2)cc1 (stereo not drawn),inactive: 8.43% [at 57.1 µM],–
O=[N+]([O-])c1cccc2n[nH]nc12,inactive: -2.31% [at 57.1 µM],–
CC(=O)N1C2C3N(C(C)=O)C1C1N(C(C)=O)C(C(N1C(C)=O)N3C(C)=O)N2C(C)=O,inactive: 8.45%,–
Cc1ccc(NP(=O)(Oc2ccccc2)Oc2ccccc2)nc1,inactive: 14.9%,–
CCc1nc2c(n1)c1c(non1O)c1c2no[n+]1[O-],–,active: 11.2 µM
O=[N+]([O-])c1cc([N+](=O)[O-])c(CCNc2ccccc2)c([N+](=O)[O-])c1,inactive: -55.9%,–
COc1cccc([N+](=O)[O-])c1[N+](=O)[O-],inactive: -13.2%,–
CC(C)C(=O)NC(Sc1ccccc1)C(Cl)(Cl)Cl (stereo not drawn),inactive: 7.21% [at 57.1 µM],–
O=P(Nc1nccs1)(c1ccccc1)c1ccccc1,inactive: 14.8%,–
